According to PubChem BioAssay AID743247 (Broad Institute, 2014):
This is a selection; strong and weak results do not stand in their true shares. Some of these compounds have results that are not shown, active ones among them. The source made the active and inactive calls.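 The calls were made as follows: active = mean inhibition across replicates of 30% or more, regardless of how many single replicates reach that level; inconclusive = mean under 30% yet at least half of replicates reach 30%; inactive = the rest.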

Assay: inhibitors of fibronectin matrix deposition, primary screen, AH1F cells, Alexa488-fibronectin fluorescence, plate reader (AID 743247);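 also: positive control wells lacked labelled fibronectin entirely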
Settings: AH1F fibroblasts, overnight, at 12.6 µM, stronger effect = higher value
Summary of the method: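 Material – AH1F fibroblast monolayer, labelled fibronectin deposition · Reagent – labelled fibronectin 24 nM · Timing – 1 h adhesion, overnight exposure · Measured by – fluorescence at 485 nm excitation, 525 nm emission · Read-out – inhibition of fibronectin deposition signal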

SMILES | inhibition
CN1[C@@H]2CC[C@H]1CC(OC(=O)C(O)(c1ccccc1)c1ccccc1)C2 (some centres not stated) | inactive: -7.82%
O=C(NCC1(N2CCCCC2)CCCCC1)c1cc([N+](=O)[O-])ccc1Cl | inactive: -5.13%
Cc1ccc(C(=O)NCC2(N3CCCCC3)CCCCC2)cc1 | inactive: 2.91%
COc1cc(SC)ccc1C(=O)NCC1(N(C)C)CCCCC1 | inactive: 1.46%
CCN(CC)CC(C)C(C)OC(=O)C(O)(c1ccccc1)c1ccccc1 (configuration not stated) | inactive: -5.28%
CN(C)c1ccc(C(=O)NCC2(N(C)C)CCCCC2)cc1 | inactive: -1.59%
CN(C)C1CCCC1OC(=O)C(O)(c1ccccc1)c1ccccc1 (configuration not stated) | inactive: -1.6%
Cc1ccccc1C(=O)NCC1(N2CCCCC2)CCCCC1 | inactive: -3.44%
COc1ccc(C(=O)NCC2(N(C)C)CCCCC2)cc1 | inactive: -1.4%
O=C(NCC1(N2CCCCC2)CCCCC1)c1cccc(Br)c1 | inactive: -1.7%
CCN1CCCC(OC(=O)C2(O)c3ccccc3C=Cc3ccccc32)C1 (configuration not stated) | inactive: -2.64%
Cc1cc(C(=O)NCC2(N3CCCCC3)CCCCC2)ccc1[N+](=O)[O-] | inactive: 4.83%
O=C(NCC1(N2CCCCC2)CCCCC1)c1cc(F)c(F)cc1Cl | inactive: -14.3%
COc1cc(C(=O)NCC2(N(C)C)CCCCC2)c([N+](=O)[O-])cc1OC | inactive: 6.34%
CN(C)C1(CNC(=O)c2ccc(Br)cc2)CCCCC1 | inactive: 0.693%
O=C(NCC1(N2CCCCC2)CCCCC1)c1cccc(Cl)c1 | inactive: 1.97%
COc1ccc(Cl)cc1C(=O)NCC1(N(C)C)CCCCC1 | inactive: -3.13%
COc1cccc(C(=O)NCC2(N3CCCCC3)CCCCC2)c1 | inactive: 11.8%
O=C(OCCN1CCCC1)C(O)(c1ccccc1)c1ccccc1 | inactive: -9.65%
CC(C)Oc1ccc(C(=O)NCC2(N(C)C)CCCCC2)cc1 | inactive: 4.18%
C=C(C)C#CC(O)(C(=O)OC1CCN(C)CC1)c1ccccc1 (configuration not stated) | inactive: 4.72%
COc1ccc(Br)c(C(=O)NCC2(N3CCCCC3)CCCCC2)c1 | inactive: -14.4%
